How the values were obtained:
[1] = tested on: rotenone-mediated neuronal cell death; experiment: Rotenone mouse model, number of neuronal cells in brain tissues (cresyl violet staining); assay type: in vivo; details: rotenone mice
[2] = tested on: TNF-α, IL-1β and AGE-albumin in human macrophages (U937); experiment: Macrophage (U937) model of rheumatoid arthritis, immunoblotting and ELISA; assay type: cell-based; details: β2-microglobulin 0, 12.5, 25, 50 μg
Description: Macrophages (U937) from human lymphoma were cultured in RPMI 1640 (Thermo, 10% FBS (Gibco), 0.1% gentamicin (Gibco), a high concentration of glucose) at 37° C. in a 5% CO2 incubator. Then, the human macrophages (U937) were exposed to β2-microglobulin (Sigma, 50 μg/mL) for 24 hrs to prepare a cell model of arthritis.
Human macrophages (U937) were treated with β2-microglobulin (0 μg, 12.5 μg, 25 μg, 50 μg), after which cell lysates and cell culture media were analyzed for the expression levels of TNF-α and IL-1β and for the synthesis and secretion of AGE-albumin using immunoblotting and ELISA.

| Compound | efficiency, Cephalothin sodium compared with Cefaclor ([1]; FIG. 40) | number of neurons in the injected region versus the non-injected region ([1]; predominant recovery in the substantia nigra) | expression levels of TNF-α, IL-1β and AGE-albumin in both cell lysate and cell culture medium [2] | secreted level of AGE-albumin [2] |
| --- | --- | --- | --- | --- |
| CC(=O)OCC1=C(C(=O)O)N2C(=O)[C@@H](NC(=O)Cc3cccs3)[C@H]2SC1 [C-21, Cephalothin sodium] | Higher efficiency | higher number of neurons | – | – |
| β2-microglobulin: β2-microglobulin (Sigma), abundantly found in cartilage of rheumatoid arthritis patients | – | – | Increased | increased in a concentration-dependent manner |

Source: patent US9662347B2, “Method for inhibiting the induction of cell death by inhibiting the synthesis or secretion of age-albumin in cells of the mononuclear phagocyte system” (Gachon University of Industry-Academic Cooperation …, priority 2010, dated 2017)
